Laboratory results taken from ChEMBL document CHEMBL1126897, “Tyrphostins. 3. Structure-activity relationship studies of alpha-substituted benzylidenemalononitrile 5-S-aryltyrphostins” (J Med Chem, 1993).

Sequences of proteins named here, by UniProt entry; tags and fusion partners are left off.
UniProt P00533, whole entry: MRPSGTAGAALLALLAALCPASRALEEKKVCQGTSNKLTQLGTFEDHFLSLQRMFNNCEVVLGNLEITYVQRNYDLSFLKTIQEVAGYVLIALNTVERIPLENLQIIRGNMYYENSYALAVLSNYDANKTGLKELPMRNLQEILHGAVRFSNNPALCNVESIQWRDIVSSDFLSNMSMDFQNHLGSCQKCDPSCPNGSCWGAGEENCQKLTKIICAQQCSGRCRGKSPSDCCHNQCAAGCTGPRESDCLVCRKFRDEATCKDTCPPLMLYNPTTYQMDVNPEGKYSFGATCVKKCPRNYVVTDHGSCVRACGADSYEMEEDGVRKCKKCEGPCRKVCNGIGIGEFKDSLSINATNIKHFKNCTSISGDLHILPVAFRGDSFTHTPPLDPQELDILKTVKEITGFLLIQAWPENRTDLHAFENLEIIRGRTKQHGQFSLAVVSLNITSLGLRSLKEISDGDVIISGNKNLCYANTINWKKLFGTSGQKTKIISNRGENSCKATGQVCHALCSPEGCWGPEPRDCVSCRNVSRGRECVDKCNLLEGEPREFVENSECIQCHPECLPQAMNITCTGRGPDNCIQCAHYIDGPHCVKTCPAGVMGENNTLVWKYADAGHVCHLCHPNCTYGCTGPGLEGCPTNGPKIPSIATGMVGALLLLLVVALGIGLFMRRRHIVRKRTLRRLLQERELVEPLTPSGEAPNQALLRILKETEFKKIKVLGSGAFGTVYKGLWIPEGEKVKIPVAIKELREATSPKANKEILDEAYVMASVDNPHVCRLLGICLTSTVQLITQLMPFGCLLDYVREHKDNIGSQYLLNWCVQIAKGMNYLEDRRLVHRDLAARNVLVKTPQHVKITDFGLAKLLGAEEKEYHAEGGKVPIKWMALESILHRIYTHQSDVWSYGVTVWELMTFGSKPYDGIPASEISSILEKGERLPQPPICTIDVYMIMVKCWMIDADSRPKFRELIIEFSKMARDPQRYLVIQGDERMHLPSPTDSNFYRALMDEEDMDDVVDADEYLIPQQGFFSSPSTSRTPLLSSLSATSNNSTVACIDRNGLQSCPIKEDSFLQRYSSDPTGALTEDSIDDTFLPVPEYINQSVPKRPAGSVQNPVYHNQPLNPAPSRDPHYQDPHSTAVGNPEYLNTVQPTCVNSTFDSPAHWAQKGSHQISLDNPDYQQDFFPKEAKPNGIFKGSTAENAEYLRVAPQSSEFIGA

Legend:
[1] = target: T1, Epidermal growth factor receptor (Homo sapiens, UniProt P00533)
[2] = target: T1, Epidermal growth factor receptor; remark: listed apart in the source

IC50 [1] | IC50 [2] | Structure (SMILES)
16.3 µM | 8.8 µM | COc1cc(/C=C(\C#N)C(N)=O)cc(CSC2=NCCS2)c1O
8.7 µM | 1.75 µM | COc1cc(/C=C(\C#N)C(N)=O)cc(CSc2ccc(C)cc2)c1O
